# Columns and labels:
# [1] = Ratio of EC50 for recombinant human mGlu2 receptor to drug level in Sprague-Dawley rat CSF at 0.3 mg/kg, sc
# [2] = Ratio of drug level in Sprague-Dawley rat CSF to plasma at 3 mg/kg, administered as single dose measured after 1 hr post dose by LC-MS/MS analysis; settings: strain Sprague-Dawley
# [3] = Ratio of drug level in Sprague-Dawley rat CSF to plasma at 1 mg/kg, administered as single dose measured after 1 hr post dose by LC-MS/MS analysis; settings: strain Sprague-Dawley
# [4] = Ratio of drug level in Sprague-Dawley rat CSF to plasma at 10 mg/kg, administered as single dose measured after 1 hr post dose by LC-MS/MS analysis; settings: strain Sprague-Dawley
# [5] = Ratio of drug level in Sprague-Dawley rat CSF to plasma at 5 mg/kg, sc administered via infusion by LC-MS/MS analysis; settings: strain Sprague-Dawley
# [6] = Ratio of drug level in Sprague-Dawley rat CSF to plasma at 15 mg/kg, sc administered via infusion by LC-MS/MS analysis; settings: strain Sprague-Dawley
# [7] = Ratio of drug level in Sprague-Dawley rat CSF at 3 mg/kg, sc to EC50 for recombinant human mGlu2 receptor
# [8] = Ratio of drug level in Sprague-Dawley rat CSF to plasma at 1.5 mg/kg, sc administered via infusion by LC-MS/MS analysis; settings: strain Sprague-Dawley
# [9] = Ratio of drug level in Sprague-Dawley rat CSF to plasma at 0.1 mg/kg, administered as single dose measured after 1 hr post dose by LC-MS/MS analysis; settings: strain Sprague-Dawley
# [10] = Ratio of EC50 for recombinant human mGlu2 receptor to drug level in Sprague-Dawley rat CSF at 3 mg/kg, sc
# [11] = Ratio of EC50 for recombinant human mGlu3 receptor to drug level in Sprague-Dawley rat CSF at 0.3 mg/kg, sc
# [12] = Ratio of drug level in Sprague-Dawley rat CSF to plasma at 0.3 mg/kg, administered as single dose measured after 1 hr post dose by LC-MS/MS analysis; settings: strain Sprague-Dawley
# [13] = Ratio of EC50 for recombinant human mGlu3 receptor to drug level in Sprague-Dawley rat CSF at 3 mg/kg, sc
compound,measurement,setting,value
COc1cccc(C(=O)N[C@H]2C[C@@](N)(C(=O)O)[C@@H]3[C@@H](C(=O)O)[C@@H]32)c1,Ratio,[1],7
same,Ratio,[2],1
same,Ratio,[3],0.8 to 1.4
same,Ratio,[4],1
same,Ratio,[5],1.9%
same,Ratio,[6],2.7%
same,Ratio,[7],1.5
same,Ratio,[8],2.1%
same,Ratio,[9],0.9
same,Ratio,[10],0.7
same,Ratio,[11],15
same,Ratio,[12],0.9
same,Ratio,[13],157
